Article PMC7047268 (ACS Central Science, 2020)

By UniProt entry, the sequences of proteins in these tests, tags left out. Residues count along the entry.
UniProt P28335, 33-458 V354A: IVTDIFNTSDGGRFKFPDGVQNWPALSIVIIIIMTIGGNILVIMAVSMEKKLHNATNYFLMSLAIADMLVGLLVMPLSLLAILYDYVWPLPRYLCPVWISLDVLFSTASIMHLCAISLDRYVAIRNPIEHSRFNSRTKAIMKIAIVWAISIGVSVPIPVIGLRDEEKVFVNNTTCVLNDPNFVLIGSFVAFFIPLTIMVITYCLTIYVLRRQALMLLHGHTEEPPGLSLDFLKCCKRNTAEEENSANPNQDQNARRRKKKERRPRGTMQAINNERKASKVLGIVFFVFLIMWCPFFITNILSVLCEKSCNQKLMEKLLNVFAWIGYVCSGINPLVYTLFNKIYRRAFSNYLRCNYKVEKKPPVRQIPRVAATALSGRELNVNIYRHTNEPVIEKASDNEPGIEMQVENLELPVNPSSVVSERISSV
UniProt P28335, 33-458 V354F: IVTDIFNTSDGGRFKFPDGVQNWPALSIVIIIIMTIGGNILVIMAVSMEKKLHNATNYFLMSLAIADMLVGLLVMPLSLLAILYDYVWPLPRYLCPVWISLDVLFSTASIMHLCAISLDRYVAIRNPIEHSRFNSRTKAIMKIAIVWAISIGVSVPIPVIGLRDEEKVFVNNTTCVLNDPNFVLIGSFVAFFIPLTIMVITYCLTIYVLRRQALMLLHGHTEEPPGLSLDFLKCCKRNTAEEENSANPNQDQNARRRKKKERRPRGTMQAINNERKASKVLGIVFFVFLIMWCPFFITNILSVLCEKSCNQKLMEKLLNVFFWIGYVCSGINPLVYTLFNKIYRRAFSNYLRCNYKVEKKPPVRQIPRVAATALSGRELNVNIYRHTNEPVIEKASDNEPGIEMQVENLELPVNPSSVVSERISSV
UniProt P41595, whole entry: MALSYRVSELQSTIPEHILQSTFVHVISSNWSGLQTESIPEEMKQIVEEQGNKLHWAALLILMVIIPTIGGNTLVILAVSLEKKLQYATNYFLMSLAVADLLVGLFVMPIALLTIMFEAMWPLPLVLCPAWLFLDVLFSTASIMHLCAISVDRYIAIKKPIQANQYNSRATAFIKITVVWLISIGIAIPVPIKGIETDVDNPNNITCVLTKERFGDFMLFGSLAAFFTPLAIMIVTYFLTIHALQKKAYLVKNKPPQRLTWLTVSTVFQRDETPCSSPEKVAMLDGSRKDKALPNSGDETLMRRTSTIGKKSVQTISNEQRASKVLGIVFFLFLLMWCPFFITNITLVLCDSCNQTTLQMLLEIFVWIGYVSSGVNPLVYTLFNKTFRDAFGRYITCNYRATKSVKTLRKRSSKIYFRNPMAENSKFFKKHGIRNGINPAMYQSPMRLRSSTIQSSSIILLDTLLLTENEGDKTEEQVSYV

How the values were obtained:
[1] = biological target: wild-type or mutant 5-HT2C (Homo sapiens, UniProt P28335, V354A); test: Gq calcium flux assay, transfected T-rex 293 cells; assay type: cell-based; conditions: read-out: Gq activity EC50
[2] = biological target: wild-type or mutant 5-HT2C (Homo sapiens, UniProt P28335, V354F); test: Gq calcium flux assay, transfected T-rex 293 cells; assay type: cell-based; conditions: read-out: Gq activity EC50
[3] = biological target: human 5-HT2C and its mutants (Homo sapiens, UniProt P28335, V354A); test: Tango β-arrestin2 recruitment assay, HTLA cells; assay type: cell-based; conditions: read-out: β-arrestin recruitment EC50
[4] = biological target: 5-HT2B (Homo sapiens, UniProt P41595); conditions: read-out: IC50, antagonism of 5-HT2B

Work on (R)-asimilobine [Compound 1857] yielded an EC50 [1] of 0.0064 µM, an EC50 [2] of 0.054 µM and an EC50 [3] of 2.3 µM. The IC50 [4] was > 10 µM.
